Results reported in US5385885A, “Inhibition of smooth muscle cell proliferation by antistasin and tick anticoagulant peptide” (priority 1991, dated 1995).

Tested on: rat aortic smooth muscle cells
Experiment: Mitogenic activity of blood coagulation factors on smooth muscle cells (3H-thymidine incorporation)
Assay type: cell-based, Wistar rats
Conditions: FIG. 1, 10 nM coagulation factor, 24 h
Procedure: Primary smooth muscle cell cultures were prepared from the thoracic and abdominal aorta of 2-3 month old Wistar rats essentially using the procedure of Reilly, C. F. (1990) J. Cell Physiol. 142,342 (1990). After removing as much fat and adherent adventitia as possible with scissors and forceps, the tissue was finely minced, enzymatically dissociated with successive 37° C. incubations in HBSS containing collagenase (Sigma, 0.5 mg/ml for 15 min.), then elastase (Sigma, 0.125 mg/ml for 30 min.) and again collagenase (60 min.). […] Cells were grown in Dulbecco's Minimal Essential Medium (DMEM) containing 10% fetal bovine serum (FBS) with antibiotics. […]
The prepared rat smooth muscle cells were seeded in Falcon 24 multiwell plates (10^5 cells/well) and cultured at 37° C., in a 5% CO2 atmosphere in 1 ml DMEM containing 10% FBS. […] The cells were washed twice with cold phosphate buffered saline (PBS), treated twice with 5% trichloroacetic acid (TCA) for 5 min., dissolved with 0.25N NaOH (0.4 ml) incubated at 37° C. for 60 min., mixed with 5 ml Ecolume (ICN Biomedicals, Costa Mesa, Calif.), and their radioactivity determined in a scintillation counter. […] Smooth muscle cell mitogenic activity produced by exogenous agents is expressed as % relative mitogenic activity which is defined as: [formula] […]

human factor X: human coagulation factor X [reference compound]
% relative mitogenic activity above control: about 58%
